Data on one substance can be found in PMC4811417, “Sulforaphane Suppresses Hepatitis C Virus Replication by Up-Regulating Heme Oxygenase-1 Expression through PI3K/Nrf2 Pathway” (PLoS ONE, 2016).

Test [1] deals with JFH-1 virus particle-infected Huh-7 cells. Put plainly: Combination of SFN with antiviral drugs in HCV-infected cells (CalcuSyn2, Chou and Talalay). In kind it is cell-based, Hepatitis C virus. To be noted: JFH-1-infected Huh-7 cells. How it is done: (§1) HCV-infected and Ava5 cells were treated with serial concentrations of SFN (0, 1.25, 2.5, 5.0, 7.5 and 10.0 μM) combined respectively with or without IFN-α (7.5, 15, 30, and 60 U·mL^-1), telaprevir (0.075, 0.15, 0.3, and 0.6 μM), sofosbuvir (10, 20, 40, and 80 nM) or daclatasvir (1, 2, 4, and 8 pM) in a fixed ratio for 3 days. The anti-HCV activities of the different combinations were determined by qRT-PCR. The drug combination data were analyzed using CalcuSyn2™ software (Biosoft, Cambridge, UK) based on the method by Chou and Talalay. The multiple drug dose effects and combination index (CI) values were evaluated and presented as antagonism (CI > 1), additivity (CI = 1) or synergism (CI < 1).

Test [2] concerns HCV subgenomic replicon in Ava5 cells. Description: Combination of SFN with antiviral drugs in replicon cells (CalcuSyn2, Chou and Talalay). In kind it is cell-based, Hepatitis C virus. How it is done:
as §1

In the case of “IFN-α: IFN-α-2a (Roferon-A) obtained from Roche Ltd”, the Influence result in test [1] and in test [2] was “Synergistic” each time. The “CI values at ED75” value is 0.8 in test [1] (fixed ratio, 3 days) and 0.8 in test [2] (fixed ratio, 3 days). Besides, the “CI values at ED90” value in test [1] (fixed ratio, 3 days) was 0.4; in test [2] (fixed ratio, 3 days) it was 0.5.
